According to patent US20220098297A1:
Where two headings read alike, the source gives them in different places.

Assays:
human IL-17A (human) [1] = biological target: human IL-17A (human) (UniProt Q16552); assay: cell-based or functional assay
human TNF-α (human) [2] = biological target: human TNF-α (human) (UniProt P01375); assay: cell-based or functional assay
hFcRN-C-His (human) [3] = biological target: hFcRN-C-His (human) (UniProt P55899); assay: BLI (Octet QK), FcRn-His on Ni-NTA biosensor, antibody as analyte, pH 6.0
[4] = biological target: cynoFcRN-C-His (monkey (cyno)) (UniProt Q8SPV9); assay: as above
human IL-17A (human) [5] = biological target: human IL-17A (human) (UniProt Q16552); assay: cell-based or functional assay; remark: listed apart in the source
human TNF-α (human) [6] = biological target: human TNF-α (human) (UniProt P01375); assay: cell-based or functional assay; remark: listed apart in the source
human IL-17A (human) [7] = biological target: human IL-17A (human) (UniProt Q16552); assay: cell-based or functional assay; remark: listed apart in the source
human TNF-α (human) [8] = biological target: human TNF-α (human) (UniProt P01375); assay: cell-based or functional assay; remark: listed apart in the source
human IL-17A (human) [9] = biological target: human IL-17A (human) (UniProt Q16552); assay: cell-based or functional assay; remark: listed apart in the source
human TNF-α (human) [10] = biological target: human TNF-α (human) (UniProt P01375); assay: cell-based or functional assay; remark: listed apart in the source
hFcRN-C-His (human) [11] = biological target: hFcRN-C-His (human) (UniProt P55899); assay: BLI (Octet QK), FcRn-His on Ni-NTA biosensor, antibody as analyte, pH 7.4
[12] = biological target: cynoFcRN-C-His (monkey (cyno)) (UniProt Q8SPV9); assay: as above
hFcRN-C-His (human) [13] = biological target: hFcRN-C-His (human) (UniProt P55899); assay: BLI (Octet QK), FcRn-His on Ni-NTA biosensor, antibody as analyte, pH 6.0; pH 6.0
[14] = biological target: Recombinant human Fc gamma RIIIA/CD16a protein (human) (UniProt P08637); assay: indirect ELISA, CD16a coated at 1 µg/ml, antibody diluted 4-fold from 1380 nM, anti-human IgG F(ab')2-specific HRP, absorbance 450 nm

SDA-0070 (bispecific antibody)
IC50, CXCL-1 secretion of HT-29 cells stimulated with IL-17A + TNF-α (co-neutralization); SDA-0070 CEX (human IL-17A (human) [1]): 30.9 pM
IC50, CXCL-1 secretion of HT-29 cells stimulated with IL-17A + TNF-α (co-neutralization); SDA-0070 RD1601 (human IL-17A (human) [1]): 27.7 pM
IC50, CXCL-1 secretion of HT-29 cells stimulated with IL-17A; SDA-0070 CEX (human IL-17A (human) [1]): 60.5 pM
IC50, CXCL-1 secretion of HT-29 cells stimulated with IL-17A; SDA-0070 RD1601 (human IL-17A (human) [1]): 55.2 pM
IC50, CXCL-1 secretion of HT-29 cells stimulated with IL-17A + TNF-α (co-neutralization); SDA-0070 CEX (human TNF-α (human) [2]): 30.9 pM
IC50, CXCL-1 secretion of HT-29 cells stimulated with IL-17A + TNF-α (co-neutralization); SDA-0070 RD1601 (human TNF-α (human) [2]): 27.7 pM
IC50, CXCL-1 secretion of HT-29 cells stimulated with TNF-α; SDA-0070 CEX (human TNF-α (human) [2]): 33.6 pM
IC50, CXCL-1 secretion of HT-29 cells stimulated with TNF-α; SDA-0070 RD1601 (human TNF-α (human) [2]): 30.2 pM
Kd (hFcRN-C-His (human) [3]): 506 pM
koff (hFcRN-C-His (human) [3]): 0.000856 s⁻¹
kon (hFcRN-C-His (human) [3]): 1.69e+06 M⁻¹ s⁻¹
Kd [4]: 461 pM
koff [4]: 0.00075 s⁻¹
kon [4]: 1.63e+06 M⁻¹ s⁻¹
IC50, CXCL-1 secretion of HT-29 cells stimulated with IL-17A + TNF-α (co-neutralization); SDA-0070 CEX (human IL-17A (human) [5]): 21.6 pM
IC50, CXCL-1 secretion of HT-29 cells stimulated with IL-17A; SDA-0070 CEX (human IL-17A (human) [5]): 22.7 pM
IC50, CXCL-1 secretion of HT-29 cells stimulated with IL-17A + TNF-α (co-neutralization); SDA-0070 CEX (human TNF-α (human) [6]): 21.6 pM
IC50, CXCL-1 secretion of HT-29 cells stimulated with TNF-α; SDA-0070 CEX (human TNF-α (human) [6]): 25.1 pM
IC50, SEAP reporter of HEK-Blue IL-17 cells; SDA-0070 CEX (human IL-17A (human) [7]): 4.46 pM
IC50, SEAP reporter of HEK-Blue IL-17 cells; SDA-0070 RD1601 (human IL-17A (human) [7]): 4.54 pM
IC50, SEAP reporter of HEK-Blue TNF-α cells; SDA-0070 CEX (human TNF-α (human) [8]): 19.8 pM
IC50, SEAP reporter of HEK-Blue TNF-α cells; SDA-0070 RD1601 (human TNF-α (human) [8]): 23.3 pM
IC50, CXCL-1 secretion of HT-29 cells stimulated with IL-17A + TNF-α (co-neutralization); SDA-0070 CEX (human IL-17A (human) [9]): 19.6 pM
IC50, CXCL-1 secretion of HT-29 cells stimulated with IL-17A + TNF-α (co-neutralization); SDA-0070 GFC (human IL-17A (human) [9]): 18.2 pM
IC50, IL-6 production induced by TNF-α+IL-17A in patient-derived RA-FLS (RA03) (human IL-17A (human) [9]): 0.369 pM
IC50, SEAP reporter of HEK-Blue IL-17 cells; SDA-0070 CEX (human IL-17A (human) [9]): 58 pM
IC50, hIL-6 secretion of commercial RA-FLS cells stimulated with IL-17A and TNF-α (co-neutralization) (human IL-17A (human) [9]): 13.7 pM
IC50, hIL-6 secretion of commercial RA-FLS cells stimulated with hIL-17A (human IL-17A (human) [9]): 312 pM
IC50, CXCL-1 secretion of HT-29 cells stimulated with IL-17A + TNF-α (co-neutralization); SDA-0070 CEX (human TNF-α (human) [10]): 19.6 pM
IC50, CXCL-1 secretion of HT-29 cells stimulated with IL-17A + TNF-α (co-neutralization); SDA-0070 GFC (human TNF-α (human) [10]): 18.2 pM
IC50, IL-6 production induced by TNF-α+IL-17A in patient-derived RA-FLS (RA03) (human TNF-α (human) [10]): 0.369 pM
IC50, SEAP reporter of HEK-Blue TNF-α cells; SDA-0070 CEX (human TNF-α (human) [10]): 39.9 pM
IC50, hIL-6 secretion of commercial RA-FLS cells stimulated with IL-17A and TNF-α (co-neutralization) (human TNF-α (human) [10]): 13.7 pM
IC50, hIL-6 secretion of commercial RA-FLS cells stimulated with hTNF-α (human TNF-α (human) [10]): 30.6 pM
Kd (hFcRN-C-His (human) [11]): 9080 pM
koff (hFcRN-C-His (human) [11]): 0.00583 s⁻¹
kon (hFcRN-C-His (human) [11]): 641000 M⁻¹ s⁻¹
Kd [12]: 4460 pM
koff [12]: 0.0042 s⁻¹
kon [12]: 943000 M⁻¹ s⁻¹

Humira (adalimumab) (antibody)
Kd [4]: 599 pM
Kd (hFcRN-C-His (human) [13]): 642 pM
Kd [12]: 4240 pM

Humira (adalimumab) (antibody; other documents disagree on this pair)
EC50 (read off the curve) [14]: 40000 pM
